Measured values reported in patent US20240025949A1, “Beta-Arrestin Effectors and Compositions and Methods of Use Thereof” (Trevena, Inc., priority 2021, published 2024).

Protein sequences, listed by entry. Tags and fused reporters are not part of them.
UniProt P25095, whole entry: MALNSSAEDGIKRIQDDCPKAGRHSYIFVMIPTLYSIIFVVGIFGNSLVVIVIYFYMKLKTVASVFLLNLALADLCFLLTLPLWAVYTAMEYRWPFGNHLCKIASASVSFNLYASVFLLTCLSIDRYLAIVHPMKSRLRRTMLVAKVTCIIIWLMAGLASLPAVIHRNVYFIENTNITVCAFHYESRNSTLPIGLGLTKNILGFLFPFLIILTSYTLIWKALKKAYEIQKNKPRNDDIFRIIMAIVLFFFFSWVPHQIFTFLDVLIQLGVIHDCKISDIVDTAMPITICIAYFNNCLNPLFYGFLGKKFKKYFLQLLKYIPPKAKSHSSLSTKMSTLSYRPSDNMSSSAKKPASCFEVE

Experiments:
Assay type in all cases: cell-based
rat AT1aR [1] = molecular target: T1, rat AT1aR (Rattus norvegicus, UniProt P25095); test: PathHunter β-arrestin-2 recruitment assay, rat AT1aR; conditions: PathHunter β-arrestin HEK293 cells
T1 construct: ProLink (β-galactosidase enzyme-donor fragment, from the pCMV-ProLink vector)

human AT1R [2] = molecular target: T2, human AT1R (Homo sapiens, UniProt P30556); test: IP1 accumulation assay (IP-One Tb), human AT1R; conditions: cells expressing human AT1R; for human AT1R IP One EC50 (M): inactive = EC50 greater than 10 uM
T2 construct: ProLink (β-galactosidase enzyme-donor fragment, from the pCMV-ProLink vector)

rat AT1aR [3] = molecular target: T1, rat AT1aR; test: IP1 accumulation assay (IP-One Tb), rat AT1aR; conditions: cells expressing rat AT1aR
human AT1R [4] = molecular target: T2, human AT1R; test: PathHunter β-arrestin-2 recruitment assay, human AT1R; conditions: PathHunter β-arrestin HEK293 cells
[5] = inactive = EC50 greater than 10 uM

SMILES	rat AT1aR b-arrestin2 Max (%) (rat AT1aR [1])	human AT1R IP One EC50 (M) (human AT1R [2])	rat AT1aR IP One EC50 (M) (rat AT1aR [3]; [5])	human AT1R b-arrestin2 EC50 (M) (human AT1R [4]; [5])	human AT1R b-arrestin2 Max (%) (human AT1R [4])	rat AT1aR b-arrestin2 EC50 (M) (rat AT1aR [1]; [5])	human AT1R IP One Max (%) (human AT1R [2])	rat AT1aR IP One Max (%) (rat AT1aR [3])	EC50 (rat AT1aR [3]; [5]) [µM]
CNCC(=O)N[C@@H](CCCNC(=N)N)C(=O)N[C@H](C(=O)N[C@@H](Cc1ccc(O)cc1)C(=O)N[C@@H](CCC(=O)O)C(=O)N[C@@H](Cc1c[nH]cn1)C(=O)N1CCC[C@H]1C(=O)N[C@@H](C)C(=O)O)C(C)C [compound 20]	86.6	inactive	Inactive	inactive	–	–	–	–	–
CN[C@@H](CCC(=O)O)C(=O)N[C@@H](CCCNC(=N)N)C(=O)N[C@H](C(=O)N[C@@H](Cc1ccc(O)cc1)C(=O)N[C@@H](Cc1ccc(O)cc1)C(=O)N[C@@H](Cc1c[nH]cn1)C(=O)N1CCC[C@H]1C(N)=O)C(C)C [compound 62]	44.19	inactive	Inactive	–	24.68	–	–	–	–
CC(C)[C@H](NC(=O)[C@H](CCCNC(=N)N)NC(=O)[C@H](N)CCC(=O)O)C(=O)N[C@@H](Cc1ccc(O)cc1)C(=O)N[C@@H](Cc1ccc(O)cc1)C(=O)N[C@@H](Cc1c[nH]cn1)C(=O)N1CCC[C@H]1C(N)=O [compound 60]	79.27	inactive	Inactive	–	44.02	–	–	–	–
CNCC(=O)N[C@@H](CCCNC(=N)N)C(=O)N[C@H](C(=O)NCC(=O)N[C@H](C(=O)N[C@@H](Cc1c[nH]cn1)C(=O)N1CCC[C@H]1C(=O)NCC(N)=O)C(C)C)C(C)C [compound 6]	–	–	–	–	12.1	inactive	14.1	21.9	–
CC[C@H](C)[C@H](NC(=O)[C@@H]1CCCN1C(=O)[C@H](Cc1c[nH]cn1)NC(=O)[C@H](Cc1ccc(O)cc1)NC(=O)[C@H](Cc1ccc(O)cc1)NC(=O)[C@@H](NC(=O)[C@H](CCCNC(=N)N)NC(=O)CNC)C(C)C)C(=O)O [compound 14]	79.0	–	–	–	59.3	–	13.5	19.3	–
CNCC(=O)N[C@@H](CCCNC(=N)N)C(=O)N[C@H](C(=O)N[C@@H](Cc1ccc(O)c(F)c1)C(=O)N[C@H](C(=O)N[C@@H](Cc1c[nH]cn1)C(=O)N1CCC[C@H]1C(=O)N[C@@H](C)C(=O)O)[C@@H](C)OC)C(C)C [compound 78]	91.3	inactive	Inactive	–	71.5	–	–	–	–
CC[C@H](C)[C@H](NC(=O)[C@@H]1CCCN1C(=O)[C@H](Cc1c[nH]cn1)NC(=O)[C@H](Cc1ccc(O)cc1)NC(=O)[C@H](Cc1ccc(O)cc1)NC(=O)[C@@H](NC(=O)[C@H](CCCNC(=N)N)NC(=O)CNC)C(C)C)C(N)=O [compound 15]	62.1	–	–	–	44.3	–	19.3	51.1	–
CC[C@H](C)[C@H](NC(=O)[C@H](Cc1ccc(O)c(Cl)c1)NC(=O)[C@@H](NC(=O)[C@H](CCCNC(=N)N)NC(=O)CNC)C(C)C)C(=O)N[C@@H](Cc1c[nH]cn1)C(=O)N1CCC[C@H]1C(=O)N[C@H](C)C(=O)O [compound 75]	79.3	inactive	–	–	55.0	–	–	26.7	25
CC[C@H](C)[C@@H]1NC(=O)[C@H](Cc2ccc(O)cc2)NC(=O)[C@H](C(C)C)NC(=O)[C@H](CCCNC(=N)N)NC(=O)[C@@H]2CCCN2C(=O)[C@H](Cc2c[nH]cn2)NC(=O)[C@H]([C@@H](C)CC)NC(=O)[C@H](Cc2ccc(O)cc2)NC(=O)[C@H](C(C)C)NC(=O)[C@H](CCCNC(=N)N)NC(=O)[C@@H]2CCCN2C(=O)[C@H](Cc2c[nH]cn2)NC(=O)[C@H]([C@@H](C)CC)NC(=O)[C@H](Cc2ccc(O)cc2)NC(=O)[C@H](C(C)C)NC(=O)[C@H](CCCNC(=N)N)NC(=O)[C@@H]2CCCN2C(=O)[C@H](Cc2c[nH]cn2)NC1=O [compound 36]	32.8	inactive	–	–	39.5	–	–	19.2	–
CC[C@H](C)[C@@H]1NC(=O)[C@H](Cc2ccc(O)cc2)NC(=O)[C@H](C(C)C)NC(=O)[C@H](Cc2ccccc2)NC(=O)[C@@H]2CCCN2C(=O)[C@H](Cc2c[nH]cn2)NC1=O [compound 38]	66.4	inactive	–	–	43.1	–	–	20.8	–
CC[C@H](C)[C@H](NC(=O)[C@@H]1CCCN1C(=O)[C@H](Cc1c[nH]cn1)NC(=O)[C@H](CCC(=O)O)NC(=O)[C@H](Cc1ccc(O)cc1)NC(=O)[C@@H](NC(=O)[C@H](CCCNC(=N)N)NC(=O)CNC)C(C)C)C(=O)O [compound 16]	76.9	inactive	–	–	56.9	–	–	24.4	–
CC[C@H](C)[C@H](NC(=O)[C@H](Cc1ccc(O)c(F)c1)NC(=O)[C@@H](NC(=O)[C@H](CCCNC(=N)N)NC(=O)CNC)C(C)C)C(=O)N[C@@H](Cc1c[nH]cn1)C(=O)N1CCC[C@H]1C(=O)N[C@H](C)C(=O)O [compound 69]	88.3	inactive	Inactive	–	53.9	–	–	–	–
CC[C@H](C)[C@H](NC(=O)[C@@H]1CCCN1C(=O)[C@H](Cc1c[nH]cn1)NC(=O)[C@@H](NC(=O)[C@H](Cc1ccc(O)cc1)NC(=O)[C@@H](NC(=O)[C@H](CCCNC(=N)N)NC(=O)CNC)C(C)C)C(C)C)C(N)=O [compound 12]	34.4	–	–	–	19.9	–	20.7	44.9	–
CN[C@@H](C)C(=O)N[C@@H](CCCNC(=N)N)C(=O)N[C@H](C(=O)N[C@@H](Cc1ccc(O)cc1)C(=O)N[C@H](C(=O)N[C@@H](Cc1c[nH]cn1)C(=O)N1CCC[C@H]1C(=O)N[C@@H](C)C(=O)O)C(C)C)C(C)C [compound 33]	86.9	inactive	Inactive	–	54.9	–	–	–	–
CC[C@H](C)[C@H](NC(=O)[C@H](Cc1ccc(O)cc1)NC(=O)[C@@H](NC(=O)[C@H](CCCNC(=N)N)NC(=O)[C@H](C)NC)C(C)C)C(=O)N[C@@H](Cc1c[nH]cn1)C(=O)N1CCC[C@H]1C(=O)N[C@@H](C)C(=O)O [compound 34]	81.7	inactive	Inactive	–	53.0	–	–	–	–
